Values of other authors as cited in patent publication US10406236B2, “Single wall nanotube constructs and uses thereof” (Sloan-Kettering Institute for Cancer Research, priority 2005, dated 2019).

Test system: tumor expressing cells
Settings: previous reports; cited from earlier work

For RMFPNAPYL [WTI-126], the “ability to kill tumor expressing cells or to produce a successful vaccine” value is listed as “limited ability”.
